Experimental data from PMC5934274.

Substrate: NC(=O)c1ccc[n+]([C@@H]2O[C@H](COP(=O)([O-])OP(=O)(O)OC[C@H]3O[C@@H](n4cnc5c(N)ncnc54)[C@H](O)[C@@H]3O)[C@@H](O)[C@H]2O)c1
Assay: purified protein, by the assay type

B1: PARP15 (Homo sapiens) (protein)
chain: MAAPGPLPAAALSPGAPTPRELMHGVAGVTSRAGRDREAGSVLPAGNRGARKASRRSSSRSMSRDNKFSKKDCLSIRNVVASIQTKEGLNLKLISGDVLYIWADVIVNSVPMNLQLGGGPLSRAFLQKAGPMLQKELDDRRRETEEKVGNIFMTSGCNLDCKAVLHAVAPYWNNGAETSWQIMANIIKKCLTTVEVLSFSSITFPMIGTGSLQFPKAVFAKLILSEVFEYSSSTRPITSPLQEVHFLVYTNDDEGCQAFLDEFTNWSRINPNKARIPMAGDTQGVVGTVSKPCFTAYEMKIGAITFQVATGDIATEQVDVIVNSTARTFNRKSGVSRAILEGAGQAVESECAVLAAQPHRDFIITPGGCLKCKIIIHVPGGKDVRKTVTSVLEECEQRKYTSVSLPAIGTGNAGKNPITVADNIIDAIVDFSSQHSTPSLKTVKVVIFQPELLNIFYDSMKKRDLSASLNFQSTFSMTTCNLPEHWTDMNHQLFCMVQLEPGQSEYNTIKDKFTRTCSSYAIEKIERIQNAFLWQSYQVKKRQMDIKNDHKNNERLLFHGTDADSVPYVNQHGFNRSCAGKNAVSYGKGTYFAVDASYSAKDTYSKPDSNGRKHMYVVRVLTGVFTKGRAGLVTPPPKNPHNPTDLFDSVTNNTRSPKLFVVFFDNQAYPEYLITFTA
other: PARP15 ART
  Km: 11.0 ± 4.2 µM

B2: PARP2 (Homo sapiens) (protein)
chain: DLRVQELIKLICNVQAMEEMMMEMKYNTKKAPLGKLTVAQIKAGYQSLKKIEDCIRAGQHGRALMEACNEFYTRIPHDFGLRTPPLIRTQKELSEKIQLLEALGDIEIAIKLVKTELQSPEHPLDQHYRNLHCALRPLDHESYEFKVISQYLQSTHAPTHSDYTMTLLDLFEVEKDGEKEAFREDLHNRMLLWHGSRMSNWVGILSHGLRIAPPEAPITGYMFGKGIYFADMSSKSANYCFASRLKNTGLLLLSEVALGQCNELLEANPKAEGLLQGKHSTKGLGKMAPSSAHFVTLNGSTVPLGPASDTGILNPDGYTLNYNEYIVYNPNQVRMRYLLKVQFNF
other: PARP2 ART
  Km: 159 ± 5 µM

B3: PARP10 (Homo sapiens) (protein)
chain: NLERLAENTGEFQEVVRAFYDTLDAARSSIRVVRVERVSHPLLQQQYELYRERLLQRCERRPVEQVLYHGTTAPAVPDICAHGFNRSFCGRNATVYGKGVYFARRASLSVQDRYSPPNADGHKAVFVARVLTGDYGQGRRGLRAPPLRGPGHVLLRYDSAVDCICQPSIFVIFHDTQALPTHLITCEHV
other: PARP10 ART
  Km: 90 ± 27 µM

B4: PARP16 (Homo sapiens) (protein)
chain: MQPSGWAAAREAAGRDMLAADLRCSLFASALQSYKRDSVLRPFPASYARGDCKDFEALLADASKLPNLKELLQSSGDNHKRAWDLVSWILSSKVLTIHSAGKAEFEKIQKLTGAPHTPVPAPDFLFEIEYFDPANAKFYETKGERDLIYAFHGSRLENFHSIIHNGLHCHLNKTSLFGEGTYLTSDLSLALIYSPHGHGWQHSLLGPILSCVAVCEVIDHPDVKCQTKKKDSKEIDRRRARIKHSEGGDIPPKYFVVTNNQLLRVKYLLVYSQKPPKRASSQLSWFSSHWFTVMISLYLLLLLIVSVINSSAFQHFWNRAKR
other: PARP16 FL
  Km: 582 ± 196 µM

B5: PARP12 (Homo sapiens) (protein)
chain: MAQAGVVGEVTQVLCAAGGALELPELRRRLRMGLSADALERLLRQRGRFVVAVRAGGAAAAPERVVLAASPLRLCRAHQGSKPGCVGLCAQLHLCRFMVYGACKFLRAGKNCRNSHSLTTEHNLSVLRTHGVDHLSYNELCQLLFQNDPWLLPEICQHYNKGDGPHGSCAFQKQCIKLHICQYFLQGECKFGTSCKRSHDFSNSENLEKLEKLGMSSDLVSRLPTIYRNAHDIKNKSSAPSRVPPLFVPQGTSERKDSSGSVSPNTLSQEEGDQICLYHIRKSCSFQDKCHRVHFHLPYRWQFLDRGKWEDLDNMELIEEAYCNPKIERILCSESASTFHSHCLNFNAMTYGATQARRLSTASSVTKPPHFILTTDWIWYWSDEFGSWQEYGRQGTVHPVTTVSSSDVEKAYLAYCTPGSDGQAATLKFQAGKHNYELDFKAFVQKNLVYGTTKKVCRRPKYVSPQDVTTMQTCNTKFPGPKSIPDYWDSSALPDPGFQKITLSSSSEEYQKVWNLFNRTLPFYFVQKIERVQNLALWEVYQWQKGQMQKQNGGKAVDERQLFHGTSAIFVDAICQQNFDWRVCGVHGTSYGKGSYFARDAAYSHHYSKSDTQTHTMFLARVLVGEFVRGNASFVRPPAKEGWSNAFYDSCVNSVSDPSIFVIFEKHQVYPEYVIQYTTSSKPSVTPSILLALGSLFSSRQ
other: PARP12 ART
  Km: 299 ± 76 µM

B6: PARP10 (Homo sapiens) (protein)
chain: MVAMAEAEAGVAVEVRGLPPAVPDELLTLYFENRRRSGGGPVLSWQRLGCGGVLTFREPADAERVLAQADHELHGAQLSLRPAPPRAPARLLLQGLPPGTTPQRLEQHVQALLRASGLPVQPCCALASPRPDRALVQLPKPLSEADVRVLEEQAQNLGLEGTLVSLARVPQARAVRVVGDGASVDLLLLELYLENERRSGGGPLEDLQRLPGPLGTVASFQQWQVAERVLQQEHRLQGSELSLVPHYDILEPEELAENTSGGDHPSTQGPRATKHALLRTGGLVTALQGAGTVTMGSGEEPGQSGASLRTGPMVQGRGIMTTGSGQEPGQSGTSLRTGPMGSLGQAEQVSSMPMGSLEHEGLVSLRPVGLQEQEGPMSLGPVGSAGPVETSKGLLGQEGLVEIAMDSPEQEGLVGPMEITMGSLEKAGPVSPGCVKLAGQEGLVEMVLLMEPGAMRFLQLYHEDLLAGLGDVALLPLEGPDMTGFRLCGAQASCQAAEEFLRSLLGSISCHVLCLEHPGSARFLLGPEGQHLLQGLEAQFQCVFGTERLATATLDTGLEEVDPTEALPVLPGNAHTLWTPDSTGGDQEDVSLEEVRELLATLEGLDLDGEDWLPRELEEEGPQEQPEEEVTPGHEEEEPVAPSTVAPRWLEEEAALQLALHRSLEPQGQVAEQEEAAALRQALTLSLLEQPPLEAEEPPDGGTDGKAQLVVHSAFEQDVEELDRALRAALEVHVQEETVGPWRRTLPAELRARLERCHGVSVALRGDCTILRGFGAHPARAARHLVALLAGPWDQSLAFPLAASGPTLAGQTLKGPWNNLERLAENTGEFQEVVRAFYDTLDAARSSIRVVRVERVSHPLLQQQYELYRERLLQRCERRPVEQVLYHGTTAPAVPDICAHGFNRSFCGRNATVYGKGVYFARRASLSVQDRYSPPNADGHKAVFVARVLTGDYGQGRRGLRAPPLRGPGHVLLRYDSAVDCICQPSIFVIFHDTQALPTHLITCEHVPRASPDDPSGLPGRSPDT
other: PARP10 FL
  Km: 98 ± 11 µM

B7: PARP2 (Homo sapiens) (protein)
chain: MAARRRRSTGGGRARALNESKRVNNGNTAPEDSSPAKKTRRCQRQESKKMPVAGGKANKDRTEDKQDGMPGRSWASKRVSESVKALLLKGKAPVDPECTAKVGKAHVYCEGNDVYDVMLNQTNLQFNNNKYYLIQLLEDDAQRNFSVWMRWGRVGKMGQHSLVACSGNLNKAKEIFQKKFLDKTKNNWEDREKFEKVPGKYDMLQMDYATNTQDEEETKKEESLKSPLKPESQLDLRVQELIKLICNVQAMEEMMMEMKYNTKKAPLGKLTVAQIKAGYQSLKKIEDCIRAGQHGRALMEACNEFYTRIPHDFGLRTPPLIRTQKELSEKIQLLEALGDIEIAIKLVKTELQSPEHPLDQHYRNLHCALRPLDHESYEFKVISQYLQSTHAPTHSDYTMTLLDLFEVEKDGEKEAFREDLHNRMLLWHGSRMSNWVGILSHGLRIAPPEAPITGYMFGKGIYFADMSSKSANYCFASRLKNTGLLLLSEVALGQCNELLEANPKAEGLLQGKHSTKGLGKMAPSSAHFVTLNGSTVPLGPASDTGILNPDGYTLNYNEYIVYNPNQVRMRYLLKVQFNFLQLW
other: PARP2 FL
  Km: 1.9 ± 0.5 µM
